Measurements: patent publication US10414150B2, “Active-energy-ray-curable composition, composition stored container, two-dimensional or three-dimensional image forming apparatus, method for forming two-dimensional or three-dimensional image, and cured product” (Ricoh Company, Ltd., priority 2015, dated 2019)

Assays:
Female mice = assay: Skin sensitization test by LLNA (Local Lymph Node Assay) method, SI value; settings: test substance 50.0 w/v % in acetone:olive oil 4:1, 25 μL/auricle, once/day × 3 days, SI less than 3 = negative
[1] = negative = satisfies at least one of (1) LLNA SI less than 3, (2) MSDS, (3) reference; cited from earlier work

Tricylodecane dimethanol diacrylate [Example B3]
SI value (Stimulation Index) measured by LLNA test (Female mice): 1.3

Ethyleneoxide-modified trimethylolpropane trimethacrylate [Example B4]
Skin sensitization [1]: negative
SI value (Stimulation Index) measured by LLNA test (Female mice): 1.0
